Source: ChEMBL document CHEMBL1250455, “Further delineation of hydrophobic binding sites in dopamine D(2)/D(3) receptors for N-4 substituents on the piperazine ring of the hybrid template 5/7-{[2-(4-aryl-piperazin-1-yl)-ethyl]-propyl-amino}-5,6,7,8-tetrahydro-naphthalen-2-ol” (Bioorg Med Chem, 2010)

Sequences of proteins named here, by UniProt entry; tags and fusion partners are left off.
UniProt P61169, whole entry: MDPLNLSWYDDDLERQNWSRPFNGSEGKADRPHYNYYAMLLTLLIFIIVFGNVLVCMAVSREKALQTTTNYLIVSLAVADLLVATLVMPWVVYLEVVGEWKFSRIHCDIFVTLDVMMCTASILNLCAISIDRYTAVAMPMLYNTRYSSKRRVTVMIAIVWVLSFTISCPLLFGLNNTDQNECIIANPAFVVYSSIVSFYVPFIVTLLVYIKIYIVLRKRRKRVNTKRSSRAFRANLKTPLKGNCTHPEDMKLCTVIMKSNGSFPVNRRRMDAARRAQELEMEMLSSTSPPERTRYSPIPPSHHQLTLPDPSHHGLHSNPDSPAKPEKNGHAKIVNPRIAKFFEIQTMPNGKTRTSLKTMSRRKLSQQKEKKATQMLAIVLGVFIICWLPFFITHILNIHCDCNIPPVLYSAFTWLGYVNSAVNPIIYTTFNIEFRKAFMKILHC

Assays:
Rattus norvegicus = species on record: Rattus norvegicus; assay: Selectivity ratio for Ki for rat D2 receptor to Ki for rat D3 receptor
D(2) dopamine receptor = D(2) dopamine receptor (Rattus norvegicus, UniProt P61169); assay: Displacement of [3H]spiperone from rat D2 receptor expressed in HEK293 cells; type: cell-based

`CCCN(CCN1CCN(c2ccc(-c3ccncc3)cc2)CC1)C1CCc2c(O)cccc2C1` (single isomer, unassigned; (-)) gave a Ratio Ki (Rattus norvegicus) of 8.63 and a Ki (D(2) dopamine receptor) of 13.2 nM.
